Laboratory results: ChEMBL document CHEMBL4184298, “Development of Potent Inhibitors of Receptor Tyrosine Kinases by Ligand-Based Drug Design and Target-Biased Phenotypic Screening” (J Med Chem, 2018)

Biological target: T1, Tyrosine-protein kinase Mer (Homo sapiens, UniProt Q12866)
T1 sequence (Q12866 whole entry): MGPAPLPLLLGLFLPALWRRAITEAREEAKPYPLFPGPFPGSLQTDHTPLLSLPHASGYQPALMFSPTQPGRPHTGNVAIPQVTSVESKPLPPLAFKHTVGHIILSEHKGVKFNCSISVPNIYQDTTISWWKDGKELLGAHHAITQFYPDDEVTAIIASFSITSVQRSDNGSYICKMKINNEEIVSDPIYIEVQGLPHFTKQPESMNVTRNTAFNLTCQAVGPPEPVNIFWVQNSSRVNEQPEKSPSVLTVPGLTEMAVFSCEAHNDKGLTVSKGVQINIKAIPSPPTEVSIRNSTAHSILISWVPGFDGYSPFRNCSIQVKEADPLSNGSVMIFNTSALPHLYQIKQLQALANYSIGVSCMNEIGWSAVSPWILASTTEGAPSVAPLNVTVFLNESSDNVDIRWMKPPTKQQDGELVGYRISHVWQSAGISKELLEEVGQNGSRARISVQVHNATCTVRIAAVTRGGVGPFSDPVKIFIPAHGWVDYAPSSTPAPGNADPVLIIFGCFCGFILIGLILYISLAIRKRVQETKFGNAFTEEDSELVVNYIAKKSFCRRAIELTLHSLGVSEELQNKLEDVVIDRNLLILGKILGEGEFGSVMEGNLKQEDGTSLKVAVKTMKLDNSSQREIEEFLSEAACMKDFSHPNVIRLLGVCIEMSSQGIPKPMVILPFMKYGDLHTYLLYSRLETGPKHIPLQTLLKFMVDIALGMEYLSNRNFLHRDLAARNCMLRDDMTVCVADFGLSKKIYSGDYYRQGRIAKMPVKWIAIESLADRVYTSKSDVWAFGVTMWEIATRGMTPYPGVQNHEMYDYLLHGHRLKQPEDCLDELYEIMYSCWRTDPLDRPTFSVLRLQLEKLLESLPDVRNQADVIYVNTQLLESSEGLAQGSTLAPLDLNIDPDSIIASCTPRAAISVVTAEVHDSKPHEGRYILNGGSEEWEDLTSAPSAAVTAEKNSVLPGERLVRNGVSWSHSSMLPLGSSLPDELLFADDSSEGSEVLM
Experiment: Inhibition of wild-type human partial length MER (R557 to L884 residues) expressed in bacterial expression system using poly [Glu, Try] 4:1 as substrate in presence of [gamma-33P]ATP
Procedure, shortened: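 Radiometric assay on recombinant kinase: ³³P incorporation into the kinase substrate was measured and activity was expressed relative to a DMSO control.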

Nc1nc(Nc2ccc3c(c2)CC[C@@H](N2CCCC2)CC3)nn1-c1cc2c(nn1)-c1ccccc1CCC2 [BEMCENTINIB]
IC50: 15 nM
